Assay results: paper PMC7866079, “Investigation of Receptor Heteromers Using NanoBRET Ligand Binding” (International Journal of Molecular Sciences, 2021)

Target: T1, AT1 receptor (Homo sapiens, UniProt P30556)
T1 construct: host or cells: HEK293FT, transient transfection
Test: NanoBRET competition binding of TAMRA-AngII, cells expressing Nluc-AT1
Conditions: competitor at 1 μM
Procedure: Figure 8 Competition binding of TAMRA-AngII to the AT1 receptor and the AT1-AT2 heteromer. Cells expressing Nluc-AT1 and treated with various concentrations of TAMRA-AngII (T-AngII) as stated, with increasing concentrations of olmesartan (Olm) (a,b). Cells expressing Nluc-AT1 and treated with various concentrations of TAMRA-AngII as stated, with increasing concentrations of PD 123319 (PD) (c,d). Cells expressing Nluc-AT1 and untagged AT2 and treated with 1 μM olmesartan, various concentrations of TAMRA-AngII as stated, and increasing concentrations of PD 123319 (e,f).
The relative BRET ratio was calculated by normalizing the data, as described in the figure legends. All individual experiments were conducted with duplicate wells.

displacement of TAMRA-AngII binding to Nluc-AT1: complete displacement
SMILES: CCCc1nc(C(C)(C)O)c(C(=O)O)n1Cc1ccc(-c2ccccc2-c2nnn[nH]2)cc1 [olmesartan]
